Test [1] has as its target T1, delta opioid receptor (Rattus norvegicus, UniProt P33533). Nature of the test: Rat Brain Delta Opioid Receptor Binding Assay-Version 1a ([3H]naltrindole). The conditions noted are these: read-out: r Ki δ Ver. 1a; rat forebrain membranes, 0.1 nM [3H]naltrindole; margin of error 10-20%. As to the method: Male, Wistar rats (150-250 g, VAF, Charles River, Kingston, N.Y.) were killed by cervical dislocation, and their brains removed and placed immediately in ice-cold Tris HCl buffer (50 mM, pH 7.4). The forebrains were separated from the remainder of the brain by a coronal transection, beginning dorsally at the colliculi and passing ventrally through the midbrain-pontine junction. After dissection, the forebrains were homogenized in Tris buffer in a Teflon®-glass homogenizer. The homogenate was diluted to a concentration of 1 g of forebrain tissue per 80 mL Tris and centrifuged at 39,000×g for 10 min. The pellet was resuspended in the same volume of Tris buffer containing 5 mM MgCl2 with several brief pulses from a Polytron homogenizer. This particulate preparation was used for the delta opioid binding assay. Following incubation with 0.1 nM of the delta selective ligand [^3H]naltrindole at 25° C. for 2.5 h in a 96-well plate with total 1 mL, the plate contents were filtered through Wallac filtermat B sheets on a Tomtec 96-well harvester. […] To each sample area, Betaplate Scint scintillation fluid (LKB) was added and the resulting radioactivity quantified on a LKB (Wallac) 1205 BetaPlate liquid scintillation counter. Kd and Ki values were calculated using the GraphPad PRISM data analysis program.

Chains of the proteins cited; added tags and fusions are not shown.
UniProt P33533, whole entry: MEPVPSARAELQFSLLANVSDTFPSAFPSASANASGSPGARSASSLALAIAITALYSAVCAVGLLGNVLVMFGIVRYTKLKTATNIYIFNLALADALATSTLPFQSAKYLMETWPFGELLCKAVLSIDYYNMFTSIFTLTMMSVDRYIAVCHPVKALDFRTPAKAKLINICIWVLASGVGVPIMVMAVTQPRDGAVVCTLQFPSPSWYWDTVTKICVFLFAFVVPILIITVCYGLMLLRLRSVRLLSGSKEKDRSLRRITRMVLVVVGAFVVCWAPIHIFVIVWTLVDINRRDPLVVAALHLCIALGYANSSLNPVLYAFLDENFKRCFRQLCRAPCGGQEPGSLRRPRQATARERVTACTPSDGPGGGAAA
UniProt P32300, whole entry: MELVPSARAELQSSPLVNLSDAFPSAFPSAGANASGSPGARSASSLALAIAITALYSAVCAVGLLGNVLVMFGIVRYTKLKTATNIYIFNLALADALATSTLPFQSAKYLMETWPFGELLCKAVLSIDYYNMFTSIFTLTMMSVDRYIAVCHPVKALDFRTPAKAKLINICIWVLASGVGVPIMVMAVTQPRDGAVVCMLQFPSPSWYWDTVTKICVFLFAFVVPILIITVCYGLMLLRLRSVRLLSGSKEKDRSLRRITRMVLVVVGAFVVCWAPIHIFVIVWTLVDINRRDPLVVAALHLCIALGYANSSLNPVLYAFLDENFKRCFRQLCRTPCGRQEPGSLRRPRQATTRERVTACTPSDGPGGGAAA
UniProt P35372, whole entry: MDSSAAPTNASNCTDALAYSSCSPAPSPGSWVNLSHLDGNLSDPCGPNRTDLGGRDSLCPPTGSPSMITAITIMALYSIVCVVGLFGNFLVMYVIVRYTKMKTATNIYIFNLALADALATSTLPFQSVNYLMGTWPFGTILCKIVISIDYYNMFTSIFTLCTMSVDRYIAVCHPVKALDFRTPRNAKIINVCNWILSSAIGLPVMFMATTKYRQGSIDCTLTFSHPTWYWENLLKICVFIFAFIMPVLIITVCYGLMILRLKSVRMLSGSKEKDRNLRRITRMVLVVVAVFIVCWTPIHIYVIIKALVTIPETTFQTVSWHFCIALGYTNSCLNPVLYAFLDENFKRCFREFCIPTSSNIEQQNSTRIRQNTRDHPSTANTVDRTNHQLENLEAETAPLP
UniProt P33535, whole entry: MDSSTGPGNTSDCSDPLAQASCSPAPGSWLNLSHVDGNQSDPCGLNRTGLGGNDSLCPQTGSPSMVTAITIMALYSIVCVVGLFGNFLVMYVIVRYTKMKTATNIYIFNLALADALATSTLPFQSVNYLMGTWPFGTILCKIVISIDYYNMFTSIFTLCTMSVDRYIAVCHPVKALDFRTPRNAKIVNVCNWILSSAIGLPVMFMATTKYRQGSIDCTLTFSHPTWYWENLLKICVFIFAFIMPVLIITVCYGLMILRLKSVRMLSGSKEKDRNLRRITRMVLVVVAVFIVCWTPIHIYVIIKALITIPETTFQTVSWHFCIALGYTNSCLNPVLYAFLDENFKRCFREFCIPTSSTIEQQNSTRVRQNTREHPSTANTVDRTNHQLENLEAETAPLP

The target in test [2] is delta opioid receptor (NG108-15 cell membranes) (Mus musculus, UniProt P32300). Nature of the test: Delta Opioid Receptor Functional Assay: [35S]GTPγS Binding in NG108-15 Cell Membranes, Version 2. The note with it: for DOR GTP-binding Assay v2 (% I): % inhibition of agonist-stimulated GTPγS binding; for EC50: read-out: DOR GTP-binding Assay_v2_ EC50, [35S]GTPγS. As to the method: NG108-15 cell membranes were purchased from Applied Cell Sciences (Rockville, Md.). 8 mg/ml of membrane protein suspended in 10 mM TRIS-HC pH 7.2, 2 mM EDTA, 10% sucrose.
Membranes were maintained at 4-8° C. A portion (1 ml) of membranes was added into 10 ml cold binding assay buffer. The assay buffer contained 50 mM Tris, pH 7.6, 5 mM MgCl2, 100 mM NaCl, 1 mM DTT and 1 mM EGTA. The membrane suspension was homogenized with a Polytron for 2 times and centrifuged at 3000 rpm for 10 min. The supernent was then centrifuged at 18,000 rpm for 20 min. The pellet was saved in a tube and 10 ml assay buffer was added into the tube. The pellet and buffer were mixed with a Polytron.
The pellet membranes (75 μg/ml) were preincubated with SPA (10 mg/ml) at 25° C. for 45 min in the assay buffer. The SPA (5 mg/ml) coupled with membranes (37.5 μg/ml) was then incubated with 0.1 nM [^35S] GTPγS in the same Tris buffer containing 100 μM GDP in total volume of 200 μl. Increasing concentrations of receptor agonists were used to stimulate [^35S] GTPγS binding. The basal binding was tested in the absent agonists and no specific binding was tested in the present 10 μM unlabeled GTPγS. The data were analyzed on a Top counter.
[formula] % Inhibition=(% stimulation by 1 μM SNC80−% stimulation by 1 μM SNC80 in presence of test compound)×100/(% Stimulation by 1 μM SNC80−100) % of Basal=(stimulate−non specific)*100/(basal−non specific). EC50 values were calculated using GraphPad Prism.

Test [3] concerns the target T1, delta opioid receptor. Nature of the test: Rat Brain Delta Opioid Receptor Binding Assay ([3H]DPDPE). The note with it: read-out: r Ki δ, rat forebrain membranes, margin of error 10-20%. As to the method:
Male, Wistar rats (150-250 g, VAF, Charles River, Kingston, N.Y.) are killed by cervical dislocation, and their brains removed and placed immediately in ice cold Tris HCl buffer (50 mM, pH 7.4). The forebrains are separated from the remainder of the brain by a coronal transection, beginning dorsally at the colliculi and passing ventrally through the midbrain-pontine junction. After dissection, the forebrains are homogenized in Tris buffer in a Teflon® glass homogenizer. The homogenate is diluted to a concentration of 1 g of forebrain tissue per 80 mL Tris and centrifuged at 39,000×g for 10 min. The pellet is resuspended in the same volume of Tris buffer containing 5 mM MgCl2 with several brief pulses from a Polytron homogenizer. This particulate preparation is used for the delta opioid binding assays. Following incubation with the delta selective peptide ligand ˜4 nM [^3H]DPDPE at 25° C. for 2.5 h in a 96-well plate with total volume of 1 mL, the plate contents are filtered through Wallac filtermat B sheets on a Tomtec 96-well harvester. The filters are rinsed three times with 2 mL of 10 mM HEPES (pH 7.4), and dried in a microwave oven 2 min twice. To each sample area 2×50 μL of Betaplate Scint scintillation fluid (LKB) is added and analyzed on a LKB (Wallac) 1205 BetaPlate liquid scintillation counter.
The data are used to calculate either the % inhibition compared to control binding (when only a single concentration of test compound is evaluated) or a Ki value (when a range of concentrations is tested). % inhibition is calculated as: [(total dpm−test compound dpm)/(total dpm−nonspecific dpm)]*100. Kd and Ki values were calculated using GraphPad PRISM data analysis program.

For a further test, the target named is human mu opioid receptor (Homo sapiens, UniProt P35372). Put plainly: Human Mu Opioid Receptor Binding Assay (CHO membranes, 3H-Damgo). The note with it: read-out: hKi μ.
For another test, the target named is mu opioid receptor (Rattus norvegicus, UniProt P33535). Put plainly: Rat Brain Mu Opioid Receptor Binding Assay (and Version 2a, [3H]DAMGO). The note with it: read-out: r Ki μ, rat forebrain membranes, margin of error 10-20%.
Test [4] has as its target mu opioid receptor (CHO-hMOR cell membranes) (Homo sapiens, UniProt P35372). Put plainly: Mu Opioid Receptor Functional Assay: [35S]GTPγS Binding in CHO-hMOR Cell Membranes, Versions 1 and 2. The conditions noted are these: for EC50: read-out: MOR GTP binding assay v2 EC50, version 2; for MOR GTP binding assay_v2 (% I): version 2, % inhibition of agonist-stimulated GTPγS binding. As to the method:
CHO-hMOR cell membranes were purchased from Receptor Biology, Inc. (Baltimore, Md.). About 10 mg/ml of membrane protein was suspended in 10 mM TRIS-HCl pH 7.2, 2 mM EDTA, 10% sucrose, and the suspension kept on ice. One ml of membranes was added to 15 ml cold binding assay buffer containing 50 mM HEPES, pH 7.6, 5 mM MgCl2, 100 mM NaCl, 1 mM DTT and 1 mM EDTA. The membrane suspension was homogenized with a Polytron and centrifuged at 3,000 rpm for 10 min. The supernatant was then centrifuged at 18,000 rpm for 20 min. The pellet was resuspended in 10 ml assay buffer with a Polytron.
The membranes were preincubated with wheat germ agglutinin coated SPA beads (Amersham) at 25° C. for 45 min in the assay buffer. The SPA bead (5 mg/ml) coupled membranes (10 μg/ml) were then incubated with 0.5 nM [^35S]GTPγS in the assay buffer. […] A range of concentrations of receptor agonists was used to stimulate [^35S]GTPγS binding. Both basal and non-specific binding was tested in the absence of agonist; non-specific binding determination included 10 μM unlabeled GTPγS.
Compounds were tested for function as antagonists by evaluating their potential to inhibit agonist-stimulated GTPγS binding. Radioactivity was quantified on a Packard TopCount. The following parameters were calculated:
[formula] % Inhibition=(% stimulation by 1 μM SNC80−% stimulation by 1 μM SNC80 in presence of test compound)×100/(% Stimulation by 1 μM SNC80−100)
EC50 values were calculated using GraphPad Prism.

In general, EC50 refers to the concentration giving half of the maximal effect.

Take `COC(=O)c1cccc(CN(C(=O)[C@@H](N)Cc2ccc(C(N)=O)cc2)[C@@H](C)c2nc(-c3ccccc3)c[nH]2)c1`: the Ki was determined as 6.24 nM on delta opioid receptor [1], 0.61 nM at delta opioid receptor [3], 21.5 nM on human mu opioid receptor and 0.37 nM at mu opioid receptor. In test [2], the “DOR GTP-binding Assay v2 (% I)” value was found to be 21.18%. The figures for the EC50 in test [2] and in test [4] were 86 nM and 48 nM, respectively. In test [4], the “MOR GTP binding assay_v2 (% I)” value is recorded as 1.00%.

On to `Cc1[nH]c([C@H](C)N(Cc2cccc(C(=O)O)c2)C(=O)[C@@H](N)Cc2ccc(C(N)=O)cc2)nc1-c1ccc(Cl)cc1`, for which the Ki at delta opioid receptor [3] was 0.14 nM; on mu opioid receptor, 0.44 nM.

As to `Cc1cc(C(N)=O)cc(C)c1C[C@H](N)C(=O)N(Cc1cccc(C(=O)O)c1)[C@@H](C)c1nc(-c2cccc3ccccc23)c[nH]1`, the figures for the Ki on delta opioid receptor [3], at human mu opioid receptor and on mu opioid receptor were 0.54 nM, 5.1 nM and 0.23 nM, respectively.

On to `COc1ccc(CN(C(=O)[C@H](N)Cc2ccc(C(N)=O)cc2)[C@@H](C)c2nc(-c3ccccc3)c[nH]2)cc1C(=O)O`, for which the Ki at delta opioid receptor [3] was 1140 nM; at human mu opioid receptor, 325 nM; on mu opioid receptor, 754 nM.

Consider `COc1ccc(CN(C(=O)[C@@H](N)Cc2ccc(C(N)=O)cc2)[C@@H](C)c2nc(-c3ccc(Cl)cc3)c(C)[nH]2)cc1C(=O)O`, for which, in test [2], the “DOR GTP-binding Assay v2 (% I)” value worked out at 72.08% and the EC50 worked out at 3 nM. Besides, the Ki at delta opioid receptor [3] was 0.47 nM. Moreover, the Ki on mu opioid receptor stood at 0.69 nM.

For the molecule `COc1ccc(CN(C(=O)[C@@H](N)Cc2c(C)cc(C(N)=O)cc2C)[C@@H](C)c2nc(-c3ccccc3)c[nH]2)cc1C(=O)Nc1ccccc1`, in test [2], the “DOR GTP-binding Assay v2 (% I)” value is on record as 109.56% and the EC50 is greater than 10000 nM. Also, the Ki on delta opioid receptor [3] was determined as 0.76 nM. Also, the Ki on mu opioid receptor came to 0.09 nM. Besides, in test [4], the half-maximal effective concentration (EC50) was 2.6 nM and the “MOR GTP binding assay_v2 (% I)” value is 76.20%.

Regarding `COc1ccc(CN(C(=O)[C@@H](N)Cc2ccc(C(N)=O)cc2)[C@H](C)c2nc(-c3ccccc3)c[nH]2)cc1C(=O)O`, the Ki at delta opioid receptor [3] came out at 6740 nM; on mu opioid receptor, 3570 nM.

`COc1ccc(CN(C(=O)[C@@H](N)Cc2c(C)cc(C(N)=O)cc2C)[C@H](C)c2nc(-c3ccccc3)c[nH]2)cc1C(=O)O`: the Ki at delta opioid receptor [3] was 907 nM; at mu opioid receptor, 185 nM.

As to `Cc1[nH]c([C@@H](C)N(Cc2cccc(C(=O)O)c2)C(=O)[C@@H](N)Cc2ccc(C(N)=O)cc2)nc1-c1ccc(Cl)cc1`, the Ki came out at 115 nM at delta opioid receptor [3] and 47 nM at mu opioid receptor.

In the case of `Cc1cc(O)cc(C)c1C[C@H](N)C(=O)N(Cc1ccc2c(c1)OCO2)[C@@H](C)c1nc(-c2ccccc2)c[nH]1`, at human mu opioid receptor, the Ki was 19 nM.

Turning to `COc1ccc(CN(C(=O)[C@@H](N)Cc2ccc(C(N)=O)cc2)[C@H](C)c2nc(-c3ccc(Cl)cc3)c(C)[nH]2)cc1C(=O)O`, the values for the Ki on delta opioid receptor [3] and at mu opioid receptor were 1220 nM and 357 nM, respectively.

For `COc1ccc(CN(C(=O)[C@H](N)Cc2ccc(C(N)=O)cc2)[C@H](C)c2nc(-c3ccccc3)c[nH]2)cc1C(=O)O`, the Ki came out at 2900 nM on delta opioid receptor [3] and 1870 nM on mu opioid receptor.

Turning to `Cc1cc(C(N)=O)cc(C)c1C[C@H](N)C(=O)N(Cc1cccc(C(=O)O)c1)[C@H](C)c1nc(-c2ccc(Cl)cc2)c(C)[nH]1`, the Ki came to 27.8 nM at delta opioid receptor [3], 15.9 nM at human mu opioid receptor and 0.35 nM on mu opioid receptor.

As to `COC(=O)c1cccc(CN(Cc2nc(-c3ccccc3)c[nH]2)C(=O)[C@@H](N)Cc2c(C)cc(C(N)=O)cc2C)c1`, the Ki on delta opioid receptor [3] is 12.2 nM; at human mu opioid receptor it was 15.5 nM; on mu opioid receptor, 0.27 nM.

In the case of `Cc1cc(C(N)=O)cc(C)c1C[C@H](N)C(=O)N(Cc1cccc(C(=O)O)c1)Cc1nc(-c2ccccc2)c[nH]1`, the values for the Ki on delta opioid receptor [3], at human mu opioid receptor and on mu opioid receptor were 15.6 nM, 1.93 nM and 1.1 nM, respectively.

As to `CC(=O)c1ccc(-c2nc(CN(C(=O)[C@@H](N)Cc3c(C)cc(O)cc3C)C(C)C)[nH]c2C)cc1`, at human mu opioid receptor, the Ki stood at 5.6 nM.
